Test results reported in US4368194A, “Pharmacologically active amine boranes” (The United States of America as represented by the …, priority 1981, dated 1983).

Assay: in vivo
Details: mouse

## O=C(O)[BH2-][n+]1ccccc1 [XVI, Pyridine-carboxyborane]
  LD50: > 200 mg/kg
